Results: US20110275559A1, “Long-Acting Y2 and/or Y4 Receptor Agonists” (Novo Nordisk A/S, priority 2008, published 2011)
Marks after values point to notes of the source that are not given here.

Experiments:
lean C57BL/6 mice = experiment: Acute food intake in fasted lean mice (BioDAQ, fasting-induced refeeding); assay type: in vivo; settings: for Mean cumulative food intake [g] / Mean cumulative food intake: Table 4
lean rats = experiment: Acute food intake in lean rats; assay type: in vivo

## CC[C@H](C)[C@H](N)C(=O)N[C@@H](CCCCN)C(=O)N1CCC[C@H]1C(=O)N[C@@H](CCC(=O)O)C(=O)N[C@@H](C)C(=O)N1CCC[C@H]1C(=O)NCC(=O)N[C@@H](CCC(=O)O)C(=O)N[C@@H](CC(=O)O)C(=O)N[C@@H](C)C(=O)N[C@@H](CO)C(=O)N1CCC[C@H]1C(=O)N[C@@H](CCC(=O)O)C(=O)N[C@@H](CCC(=O)O)C(=O)N[C@@H](CC(C)C)C(=O)N[C@@H](CC(N)=O)C(=O)N[C@@H](CCCNC(=N)N)C(=O)N[C@@H](Cc1ccc(O)cc1)C(=O)N[C@@H](Cc1ccc(O)cc1)C(=O)N[C@@H](C)C(=O)N[C@@H](CO)C(=O)N[C@@H](CC(C)C)C(=O)N[C@@H](CCCNC(=N)N)C(=O)N[C@@H](Cc1c[nH]cn1)C(=O)N[C@@H](Cc1ccc(O)cc1)C(=O)N[C@@H](CC(C)C)C(=O)N[C@@H](CC(N)=O)C(=O)N[C@@H](CC(C)C)C(=O)N[C@H](C(=O)N[C@H](C(=O)N[C@@H](CCCNC(=N)N)C(=O)N[C@@H](CCC(N)=O)C(=O)N[C@@H](CCCNC(=N)N)C(=O)N[C@@H](Cc1ccc(O)cc1)C(N)=O)[C@@H](C)O)C(C)C [SEQ ID NO: 1, hPYY(3-36)]
Lean C57BL/6 mice; Example 5, lean fasted-refed C57BL/6 mice, 1 μmol/kg s.c.
  time after administration at which the effect in reducing food intake has disappeared: 6 h
Lean C57BL/6 mice; lean fasted-refed C57BL/6 mice, single 1.0 μmol/kg s.c., 1 hour after injection, vehicle 0.41
  Mean cumulative food intake [g]: 0.06* g
Lean C57BL/6 mice; mice, 1.0 μmol/kg s.c., 2 hours after injection, vehicle 0.70
  Mean cumulative food intake [g]: 0.37* g
Lean C57BL/6 mice; mice, 1.0 μmol/kg s.c., 3 hours after injection, vehicle 1.17
  Mean cumulative food intake [g]: 0.78* g
Lean C57BL/6 mice; mice, 1.0 μmol/kg s.c., 4 hours after injection, vehicle 1.48
  Mean cumulative food intake: 1.18 g
Lean C57BL/6 mice; mice, 1.0 μmol/kg s.c., 6 hours after injection, vehicle 1.90
  Mean cumulative food intake: 1.75 g
Lean C57BL/6 mice; mice, 1.0 μmol/kg s.c., 8 hours after injection, vehicle 2.42
  Mean cumulative food intake: 2.23 g
Lean C57BL/6 mice; mice, 1.0 μmol/kg s.c., 12 hours after injection, vehicle 3.59
  Mean cumulative food intake: 3.21 g
Lean C57BL/6 mice; mice, 1.0 μmol/kg s.c., 24 hours after injection, vehicle 4.41
  Mean cumulative food intake: 4.14 g
Lean rats; Study 8A, single s.c. injection, 1.0 μmol/kg
  effect on acute food intake compared to vehicle: not statistically significant
Lean rats; Study 8B, 1.0 μmol/kg s.c.
  effect on food intake compared to vehicle: no effect on food intake
Lean rats; Table 11, Study 8A, single 1.0 μmol/kg s.c., 16 hours after injection, vehicle 24.46
  Mean cumulative food intake: 22.74 g
Lean rats; Table 12, Study 8B, 1.0 μmol/kg s.c., 6 hours after injection, vehicle 12.65
  Mean cumulative food intake: 10.72 g
Lean rats; Table 12, Study 8B, 1.0 μmol/kg s.c., 8 hours after injection, vehicle 14.57
  Mean cumulative food intake: 14.36 g
Lean rats; Table 12, Study 8B, 1.0 μmol/kg s.c., 12 hours after injection, vehicle 24.14
  Mean cumulative food intake: 23.86 g
Lean rats; Table 12, Study 8B, 1.0 μmol/kg s.c., 24 hours after injection, vehicle 29.68
  Mean cumulative food intake: 28.88 g
Lean rats; Table 12, Study 8B, 1.0 μmol/kg s.c., 36 hours after injection, vehicle 51.26
  Mean cumulative food intake: 52.97 g
Lean rats; Table 12, Study 8B, 1.0 μmol/kg s.c., 48 hours after injection, vehicle 56.08
  Mean cumulative food intake: 58.53 g
Lean rats; Table 12, Study 8B, single 1.0 μmol/kg s.c., 4 hours after injection, vehicle 7.38
  Mean cumulative food intake: 6.72 g
